pKi: −log10 of the molar value.
Key:
[1] = test system: JAK1-dependent STAT6 phosphorylation downstream of IL-13 stimulation in BEAS-2B human bronchial epithelial cells; experiment: JAK1 pathway assay in BEAS-2B cells (IL-13-pSTAT6, MSD); conditions: read-out: IL13-pSTAT6 EC50 (uM)_BEAS-2B, tested form: formate
[2] = target: isolated recombinant JAK1 kinase domain (Homo sapiens (Human), UniProt P23458); experiment: JAK1 enzyme assay (Caliper LabChip, peptide phosphorylation); type: biochemical; conditions: read-out: JAK1 Ki; tested form: formate
[3] = target: isolated recombinant JAK2 kinase domain (Homo sapiens (Human), UniProt O60674); experiment: JAK2 enzyme assay (Caliper LabChip, peptide phosphorylation); type: biochemical; conditions: read-out: JAK2 Ki, 25 μM ATP, tested form: formate

Sequences of proteins named here, by UniProt entry; tags and fusion partners are left off. Residues count along the entry.
UniProt P23458, 875-1153 limits assumed: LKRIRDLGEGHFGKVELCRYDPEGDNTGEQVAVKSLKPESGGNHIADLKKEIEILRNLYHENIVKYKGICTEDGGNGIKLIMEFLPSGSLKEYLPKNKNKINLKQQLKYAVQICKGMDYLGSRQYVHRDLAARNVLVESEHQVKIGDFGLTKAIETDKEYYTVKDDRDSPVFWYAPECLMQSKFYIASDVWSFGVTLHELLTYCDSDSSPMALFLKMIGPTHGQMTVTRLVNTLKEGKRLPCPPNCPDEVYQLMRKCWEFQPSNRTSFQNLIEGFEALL
UniProt O60674, 849-1124 limits assumed: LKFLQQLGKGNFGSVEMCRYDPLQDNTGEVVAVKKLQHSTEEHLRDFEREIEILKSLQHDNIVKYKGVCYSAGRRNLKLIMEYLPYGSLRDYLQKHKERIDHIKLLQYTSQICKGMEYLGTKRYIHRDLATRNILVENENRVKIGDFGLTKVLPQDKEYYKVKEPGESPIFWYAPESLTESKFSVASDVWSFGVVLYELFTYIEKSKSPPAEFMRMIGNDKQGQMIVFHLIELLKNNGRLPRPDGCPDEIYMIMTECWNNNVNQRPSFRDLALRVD

Structure (SMILES): O=C(Nc1cn(CC(=O)N2CCC(N3CC(O)CCC3=O)CC2)nc1-c1cc(Cl)ccc1OC(F)F)c1cnn2cccnc12 (stereo not drawn)
- EC50 [1]: 0.0343 µM
- pKi [2]: 9.41
- pKi [3]: 9.06

Reference: patent publication US9346815B2, “5-chloro-2-difluoromethoxyphenyl pyrazolopyrimidine compounds, compositions and methods of use thereof” (Genentech, Inc., priority 2014, dated 2016)
